From article PMC8200345 (American Journal of Clinical Dermatology, 2021)

Tests used:
[1] = human, in vivo

N#CC[C@H](C1CCCC1)n1cc(-c2ncnc3[nH]ccc23)cn1 [ruxolitinib]
Change in mean platelet volume (phase III studies combined): No change
Correlation between ruxolitinib Css quartiles and hemoglobin (phase III studies combined): no correlation
Transient increase in platelet count, change from baseline (week 2, return to baseline by week 4): < 30%
Dose-PK model: exponent on transformed %BSA, estimate [1]: 0.602
